Drawing on patent US10894782B2, “Modulators of P97 AAA ATPase activity” (University of Pittsburgh—Of the Commonwealth System of …, priority 2016, dated 2021), this text covers IC50 for one molecule.

Chains of the proteins cited; added tags and fusions are not shown.
UniProt P55072, whole entry: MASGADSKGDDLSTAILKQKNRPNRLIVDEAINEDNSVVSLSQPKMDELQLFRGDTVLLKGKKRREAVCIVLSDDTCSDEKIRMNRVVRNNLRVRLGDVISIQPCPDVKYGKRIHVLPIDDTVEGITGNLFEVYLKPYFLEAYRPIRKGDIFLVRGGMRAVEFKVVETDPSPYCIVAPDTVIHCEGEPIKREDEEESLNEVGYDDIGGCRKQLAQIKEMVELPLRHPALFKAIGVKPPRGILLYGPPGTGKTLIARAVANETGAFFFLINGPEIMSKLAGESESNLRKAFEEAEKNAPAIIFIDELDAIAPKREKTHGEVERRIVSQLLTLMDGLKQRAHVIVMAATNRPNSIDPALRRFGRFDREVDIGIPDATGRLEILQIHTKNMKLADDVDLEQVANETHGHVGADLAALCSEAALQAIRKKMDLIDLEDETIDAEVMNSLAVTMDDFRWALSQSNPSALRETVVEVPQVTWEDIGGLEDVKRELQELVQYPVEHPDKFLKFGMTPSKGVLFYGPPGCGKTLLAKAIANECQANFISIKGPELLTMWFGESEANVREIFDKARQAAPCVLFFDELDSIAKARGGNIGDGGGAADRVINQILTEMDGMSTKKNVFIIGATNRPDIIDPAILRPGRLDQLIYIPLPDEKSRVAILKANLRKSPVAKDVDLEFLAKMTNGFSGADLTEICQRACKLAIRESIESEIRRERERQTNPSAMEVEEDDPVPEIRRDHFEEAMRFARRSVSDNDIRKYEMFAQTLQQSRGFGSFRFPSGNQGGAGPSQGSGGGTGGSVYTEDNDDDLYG

The test has as its target P97 (Homo sapiens (Human), UniProt P55072). The test can be described thus: P97 Biomolgreen ATPase assay, 200 μM ATP. It is filed as biochemical. Conditions: read-out: P97 Biomolgreen.

Turning to `Cc1cc(OCc2nnc(SC3C=CCCC3)n2-c2cccnc2)ccc1C#CCOC(=O)NC1CCN(C)CC1` (stereo not shown), the IC50 turned out to be 15 nM.
